Activity change, positive = activation and Potency data for four molecules are collected here from PubChem BioAssay (NCATS).

The chains behind the UniProt entries cited, without tags or fusion partners. Where a name states a change or a piece, a line headed by the entry shows the natural chain unless it says otherwise.
UniProt P08684, whole entry, looked up: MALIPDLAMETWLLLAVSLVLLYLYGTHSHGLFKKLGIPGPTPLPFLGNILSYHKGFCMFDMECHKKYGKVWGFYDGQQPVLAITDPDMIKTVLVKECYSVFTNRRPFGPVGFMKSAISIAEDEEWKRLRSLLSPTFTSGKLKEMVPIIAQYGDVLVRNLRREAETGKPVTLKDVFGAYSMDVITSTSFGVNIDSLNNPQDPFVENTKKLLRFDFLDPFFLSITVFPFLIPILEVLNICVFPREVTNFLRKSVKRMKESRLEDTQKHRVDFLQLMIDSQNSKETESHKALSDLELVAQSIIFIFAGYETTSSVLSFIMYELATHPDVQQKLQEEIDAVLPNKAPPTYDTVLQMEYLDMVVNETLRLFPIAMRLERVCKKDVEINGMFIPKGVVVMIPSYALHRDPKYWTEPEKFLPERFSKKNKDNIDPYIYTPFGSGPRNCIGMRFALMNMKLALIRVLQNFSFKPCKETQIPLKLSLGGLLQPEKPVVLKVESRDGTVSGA
UniProt Q12809: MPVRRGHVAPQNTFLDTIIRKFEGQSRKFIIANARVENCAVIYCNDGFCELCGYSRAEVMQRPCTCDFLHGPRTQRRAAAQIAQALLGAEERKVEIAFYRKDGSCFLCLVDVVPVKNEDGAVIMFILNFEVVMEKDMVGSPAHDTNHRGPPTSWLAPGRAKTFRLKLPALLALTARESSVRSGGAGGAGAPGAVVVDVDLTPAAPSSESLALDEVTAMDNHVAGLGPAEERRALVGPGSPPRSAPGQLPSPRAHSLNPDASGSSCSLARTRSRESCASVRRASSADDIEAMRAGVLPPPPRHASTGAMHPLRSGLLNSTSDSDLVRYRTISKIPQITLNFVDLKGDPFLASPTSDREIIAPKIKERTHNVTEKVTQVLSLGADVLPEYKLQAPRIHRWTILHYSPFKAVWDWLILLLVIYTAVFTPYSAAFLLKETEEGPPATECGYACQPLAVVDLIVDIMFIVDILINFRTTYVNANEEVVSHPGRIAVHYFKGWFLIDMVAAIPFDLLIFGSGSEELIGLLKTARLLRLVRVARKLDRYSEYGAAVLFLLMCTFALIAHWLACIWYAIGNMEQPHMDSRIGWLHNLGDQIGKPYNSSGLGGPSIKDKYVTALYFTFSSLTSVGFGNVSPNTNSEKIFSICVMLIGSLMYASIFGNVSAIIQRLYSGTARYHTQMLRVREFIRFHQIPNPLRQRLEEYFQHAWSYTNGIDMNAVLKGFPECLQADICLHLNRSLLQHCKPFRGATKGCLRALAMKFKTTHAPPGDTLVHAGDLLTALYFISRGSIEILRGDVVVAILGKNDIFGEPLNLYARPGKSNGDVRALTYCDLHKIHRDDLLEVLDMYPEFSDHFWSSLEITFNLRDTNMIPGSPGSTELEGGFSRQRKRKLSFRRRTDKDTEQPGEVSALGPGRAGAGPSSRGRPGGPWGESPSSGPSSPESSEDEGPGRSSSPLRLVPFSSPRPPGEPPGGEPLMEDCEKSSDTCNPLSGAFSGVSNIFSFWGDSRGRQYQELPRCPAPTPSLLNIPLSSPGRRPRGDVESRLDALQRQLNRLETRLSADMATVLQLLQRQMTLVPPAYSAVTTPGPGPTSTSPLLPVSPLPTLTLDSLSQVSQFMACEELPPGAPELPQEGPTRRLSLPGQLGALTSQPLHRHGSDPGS
UniProt P11712, whole entry, looked up: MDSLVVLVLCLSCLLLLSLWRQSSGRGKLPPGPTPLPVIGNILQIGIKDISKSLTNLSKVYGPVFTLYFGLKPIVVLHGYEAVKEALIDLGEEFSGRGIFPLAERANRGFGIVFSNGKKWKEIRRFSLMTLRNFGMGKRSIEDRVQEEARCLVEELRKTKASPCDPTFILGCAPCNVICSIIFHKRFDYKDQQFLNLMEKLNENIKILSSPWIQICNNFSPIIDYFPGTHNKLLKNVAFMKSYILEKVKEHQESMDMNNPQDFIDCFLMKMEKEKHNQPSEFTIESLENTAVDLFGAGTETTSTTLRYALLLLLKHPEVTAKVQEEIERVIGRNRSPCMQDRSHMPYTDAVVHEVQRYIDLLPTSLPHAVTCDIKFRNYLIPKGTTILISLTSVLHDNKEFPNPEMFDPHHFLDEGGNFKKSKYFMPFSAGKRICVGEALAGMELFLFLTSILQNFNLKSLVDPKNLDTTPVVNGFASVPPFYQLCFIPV
UniProt P10635, whole entry, looked up: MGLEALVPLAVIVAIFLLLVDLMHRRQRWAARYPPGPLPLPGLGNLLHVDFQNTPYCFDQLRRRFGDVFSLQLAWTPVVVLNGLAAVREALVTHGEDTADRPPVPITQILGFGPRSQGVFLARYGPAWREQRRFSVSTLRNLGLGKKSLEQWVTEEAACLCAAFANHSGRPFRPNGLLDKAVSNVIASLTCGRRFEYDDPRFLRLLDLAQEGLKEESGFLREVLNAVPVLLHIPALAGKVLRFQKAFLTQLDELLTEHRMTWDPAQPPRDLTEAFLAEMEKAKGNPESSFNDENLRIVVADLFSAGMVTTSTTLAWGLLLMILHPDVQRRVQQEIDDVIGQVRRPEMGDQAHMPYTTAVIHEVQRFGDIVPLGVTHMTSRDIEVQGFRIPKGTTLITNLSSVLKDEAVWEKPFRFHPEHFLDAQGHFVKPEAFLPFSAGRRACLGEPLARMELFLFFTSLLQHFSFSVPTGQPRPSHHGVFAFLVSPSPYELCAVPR
UniProt P33261, whole entry, looked up: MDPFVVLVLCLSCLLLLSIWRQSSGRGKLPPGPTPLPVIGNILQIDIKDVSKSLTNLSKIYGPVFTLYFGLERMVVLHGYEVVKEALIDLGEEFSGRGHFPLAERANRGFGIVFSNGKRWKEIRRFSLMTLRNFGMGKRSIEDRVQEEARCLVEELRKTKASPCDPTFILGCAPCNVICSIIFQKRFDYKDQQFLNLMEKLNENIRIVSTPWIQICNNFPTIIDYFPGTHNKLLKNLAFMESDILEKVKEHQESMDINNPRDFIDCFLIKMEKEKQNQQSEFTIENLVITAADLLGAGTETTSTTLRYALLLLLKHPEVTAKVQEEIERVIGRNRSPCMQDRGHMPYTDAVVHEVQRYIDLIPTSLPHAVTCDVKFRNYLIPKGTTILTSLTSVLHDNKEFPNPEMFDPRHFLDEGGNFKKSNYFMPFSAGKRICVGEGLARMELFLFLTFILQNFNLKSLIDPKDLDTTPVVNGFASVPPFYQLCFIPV

Test [1] deals with Cytochrome P450 3A4 (Homo sapiens) (UniProt P08684). The test is described as follows: qHTS Assay for Activators of Cytochrome P450 3A4 (AID 885). Also: nearly all actives have a fitted effect of over 65% in size. Particulars: recombinant CYP3A4, Luciferin-PPXE luminescence, 60 min; at 25.6 µM (top of the series).
For test [2], the target named is Voltage-gated inwardly rectifying potassium channel KCNH2 (Homo sapiens) (UniProt Q12809). The test is described as follows: qHTS Assay for Small Molecule Inhibitors of the Human hERG Channel Activity (AID 588834).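 Also: potency is read from the fitted curve at half-maximal effect; lower thallium flux fluorescence means stronger hERG block; nearly all actives have a fitted effect of over 50% in size.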 As to conditions: U2OS BacMam hERG, FluxOR thallium flux fluorescence. For orientation: qHTS replaces the single test concentration by a dilution series.

Test [3] addresses Cytochrome P450 2C9 (Homo sapiens) (UniProt P11712). The test is described as follows: qHTS Assay for Inhibitors and Substrates of Cytochrome P450 2C9 (AID 883). Also: potency is read from the fitted curve at half-maximal effect; nearly all actives have a fitted effect of over 60% in size. As to conditions: recombinant CYP2C9, luciferin-H luminescence, 60 min.
In test [4] the target is Cytochrome P450 2D6 (Homo sapiens) (UniProt P10635). Put plainly: qHTS Assay for Inhibitors and Substrates of Cytochrome P450 2D6 (AID 891). Also: potency is read from the fitted curve at half-maximal effect; nearly all actives have a fitted effect of over 60% in size. Particulars: recombinant CYP2D6, luciferin-ME EGE luminescence.
Test [5] concerns the target Cytochrome P450 2C19 (Homo sapiens) (UniProt P33261). Put plainly: qHTS Assay for Inhibitors and Substrates of Cytochrome P450 2C19 (AID 899). Also: potency is read from the fitted curve at half-maximal effect; nearly all actives have a fitted effect of over 60% in size. As to conditions: recombinant CYP2C19, luciferin-H EGE luminescence.
Test [6] deals with Cytochrome P450 2D6 (Homo sapiens) (UniProt P10635). Put plainly: Cytochrome P450 family 2 subfamily D member 6 (CYP2D6) small molecule antagonists: luciferase biochemical (cell-free) qHTS assay (AID 1645840; active = well fitted curve in the direction sought with a large enough effect in the repeat runs; an effect the other way counts as inactive or inconclusive; also: potency is read from the fitted curve at half-maximal effect; nearly all actives have a fitted effect of over 55% in size). Particulars: P450-Glo CYP2D6 enzyme, luciferin luminescence, 1 h. The essentials: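 P450-Glo CYP2D6 system: proluciferin substrate converted by enzyme to luciferin, read by luminescence proportional to activity. Enzyme-substrate mix with compound 10 min at room temperature, then NADPH regeneration 1 h before detection reagent.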

Molecules are shown by their SMILES. Several values for one entry are separate records, joined by “and”; a condition that tells them apart may be missing. Equal values may be shown once. For part of these data: What follows is the remainder of the data, with few or none of the hits. This is a selection; strong and weak results do not stand in their true shares. Inconclusive results are not listed. Activity calls are given as the source filed them. Unless noted, calls follow the shape of the dose curve; as a rule, active = well fitted curve in the direction sought with a large enough effect; inconclusive = small, poorly fitted or top-dose-only effect, or another doubt; inactive = no such curve, though single readings can be large; an effect the other way counts as inactive or inconclusive.

`Clc1ccc(COC(Cn2ccnc2)c2ccc(Cl)cc2Cl)c(Cl)c1` (stereo unspecified): in test [1], the activity change, positive = activation is inactive: -95.3%.

As for `Fc1ccc(C(OCCN2CCN(CCCc3ccccc3)CC2)c2ccc(F)cc2)cc1`, the Potency in test [2] is active: 112 nM and active: 224 nM. `O=c1c(O)c(-c2ccc(O)c(O)c2)oc2cc(O)cc(O)c12`: the Potency in test [3] is active: 7.94 µM. With `O=c1[nH]c2ccccc2n1C1CCN(CCCC(c2ccc(F)cc2)c2ccc(F)cc2)CC1`, the Potency in test [4] was active: 10 µM and active: 3.16 µM; in test [5], active: 10 µM; in test [6] it was active: 1.95 µM.
